For data set [1], the system named is Male Sprague-Dawley rats. Put plainly: ANIT rat toxicity study (clinical observations, body weight, clinical laboratory measurements, organ weights, histopathology). The note with it: final necropsy, 120 hours post dose; due to decreased terminal body weights.
Data set [2] has as its system Liver Response-Associated Features (LRFs) in liver tissue. Description: Proteome analysis (2D electrophoresis, Reference Protocol) of liver tissue of drug-treated vs control animals: relative abundance of LRFs.
In data set [3] the test system is Liver Response-Associated Features (LRFs) in serum/plasma (blood). Put plainly: Proteome analysis (2D electrophoresis, Reference Protocol) of depleted serum/plasma of drug-treated vs control animals: relative abundance of LRFs.

The source of these data is US20030228583A1, “Biomarkers of liver response” (priority 2001, published 2003).

On to `S=C=Nc1cccc2ccccc12` [ANIT, Alpha-naphthylisothiocyanate], for which the Relative liver weight result in data set [1] is “remained increased”. The “Fold Change LRF-399” value in data set [2] (Early, Middle, P 0.0367) is on record as 1.82 fold. The “Fold Change LRF-111” value in data set [2] (Late, P 0.0200) was found to be 1.41 fold. Besides, the “Fold Change LRF-410” value in data set [2] (Middle, Late, P 0.0345) is on record as 1.31 fold. Moreover, in data set [2] (Middle, P 0.0075), the “Fold Change LRF-64” value is reported as 5.37 fold. The “Fold Change LRF-72” value in data set [2] (Middle, P 0.0117) came to 1.90 fold. Further, in data set [3] (Early, P 0.0075), the “Fold Change LRF-161” value is recorded as −4.38 fold, the “Fold Change LRF-169” value is recorded as −8.33 fold and the “Fold Change LRF-181” value was −6.05 fold. The “Fold Change LRF-160” value in data set [3] (Early, P 0.0097) is given as −2.62 fold. Further, in data set [3] (Late, P 0.0073), the “Fold Change LRF-367” value is 6.89 fold. Moreover, the “Fold Change LRF-305” value in data set [3] (Middle, P 0.0073) is recorded as 6.03 fold. For the same molecule, the “Fold Change LRF-298” value in data set [3] (Middle, P 0.0075) is 6.40 fold.
